# Test results published in PubChem BioAssay AID2563 (Broad Institute, 2010).
# The chains behind the UniProt entries cited, without tags or fusion partners.
# UniProt Q03530, whole entry: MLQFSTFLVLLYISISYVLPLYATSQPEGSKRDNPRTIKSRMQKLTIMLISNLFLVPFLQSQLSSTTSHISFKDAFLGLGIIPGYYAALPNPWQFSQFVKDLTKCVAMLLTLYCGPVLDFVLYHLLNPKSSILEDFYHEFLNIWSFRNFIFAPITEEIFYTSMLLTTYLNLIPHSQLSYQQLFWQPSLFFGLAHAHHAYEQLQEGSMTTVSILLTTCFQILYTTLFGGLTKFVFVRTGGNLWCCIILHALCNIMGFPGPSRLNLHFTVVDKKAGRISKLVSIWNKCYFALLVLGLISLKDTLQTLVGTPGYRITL
# The entries are a selection whose mix differs from that of the whole data set. Active and inactive are the calls of the source.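 Rule for the calls: active = fall in fluorescence gain of 50% or more versus controls, with final raw signal at or below 3038400; inconclusive = same 50% fall but final raw signal above 3038400; inactive = fall in fluorescence gain under 50%.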
# Target: CAAX prenyl protease 2 (Saccharomyces cerevisiae (strain ATCC 204508 / S288c)) (UniProt Q03530)
# Experiment: yeast Rce1p protease inhibitors, primary screen, biochemical, fluorescence, cell-free homogeneous (AID 2563)
# Details: yeast membranes, quenched prenylated peptide cleavage fluorescence
row,Structure (SMILES),outcome
1,O=[N+]([O-])c1ccc2c(c1)C=Nc1ccccc1O2,inactive
2,Cc1cccc(C)c1OP(C)(N)=O (stereo unspecified),inactive
3,Cc1ccc(OP(=O)(Nc2ccc([N+](=O)[O-])cn2)Oc2ccc(C)cc2)cc1,inactive
4,CC(C)(C)c1ccc(OP(C)(=O)Nc2ccc(SC(F)(F)F)cc2)cc1 (stereo unspecified),inactive
5,C[As](=O)(O)c1cccc(C(=O)O)c1,inactive
6,O=[As](O)(c1ccc(O)cc1)c1ccccc1O,inactive
7,O=[N+]([O-])c1cc([N+](=O)[O-])c(Nc2cccnc2)c([N+](=O)[O-])c1,inactive
8,Cc1cc(C)cc(OP(C)(N)=O)c1 (stereo unspecified),inactive
9,COc1ccc(OP(C)(=O)Nc2cccc(F)c2)cc1 (stereo unspecified),inactive
10,O=[N+]([O-])c1cc([N+](=O)[O-])c(-c2ccn[nH]2)s1,inactive
11,CC(C)NC(=O)NP(=O)(Oc1ccccc1)Oc1ccccc1,inactive
12,COc1ccccc1OP(C)(=O)Nc1cc(Cl)ccc1C (stereo unspecified),inactive
13,CCN(CC)C(=S)SC(NC=O)C(Cl)(Cl)Cl (stereo unspecified),inactive
14,CC(C)c1ccc(OP(=O)(Nc2ccccn2)Oc2ccccc2F)cc1 (stereo unspecified),inactive
15,COc1ccccc1OP(C)(=O)Nc1ccc(C)cc1 (stereo unspecified),inactive
16,ClCCSc1nnc(-c2cccnc2)o1,inactive
17,CCOC(=O)c1ccc(NP(C)(=O)Oc2ccccc2)cc1 (stereo unspecified),inactive
18,COc1cc(I)ccc1[As](=O)(O)O,inactive
19,COc1ccc2nc(NP(=O)(c3ccccc3)c3ccccc3)sc2c1,inactive
20,Cc1cc(=O)[nH]c(N[N+](=O)[O-])n1,inactive
21,CCN(CC)CCCOC(=O)C(O)(c1ccccc1)c1ccccc1,inactive
22,O=C(OC1CN2CCC1CC2)C12CC3CC(CC(C3)C1)C2 (stereo unspecified),inactive
23,Cc1c2c(nc3ccccc13)SC(C(Cl)Cl)C2 (stereo unspecified),inactive
24,COc1ccc(N/C(=N/P(=O)(N2CCOCC2)N2CCOCC2)N2CCOCC2)cc1,inactive

row,Structure (SMILES),outcome
1,O=C(Nc1ccncc1[N+](=O)[O-])c1ccc([N+](=O)[O-])cc1[N+](=O)[O-],inactive
2,Cc1cc(C)cc(OP(C)(=O)Nc2ccc(SC(F)(F)F)cc2)c1 (stereo unspecified),inactive
3,CP(=O)(NC(=O)Nc1ccccc1)Oc1ccccc1 (stereo unspecified),inactive
4,O=C(COc1ccccc1)OC1CN2CCC1CC2 (stereo unspecified),inactive
5,CCc1ccc(OP(C)(=O)N2CCN(c3ccc([N+](=O)[O-])cc3)CC2)cc1 (stereo unspecified),inactive
6,CP(=O)(Oc1ccccc1)OC(c1ccccc1)C(F)(F)F (stereo unspecified),inactive
7,COP1(=S)c2c(C)nn(CCC#N)c2N=C(c2ccc(F)cc2)N1C (stereo unspecified),inactive
8,Cc1cccc(C)c1OP(C)(=O)Nc1ccc(SC(F)(F)F)cc1 (stereo unspecified),inactive
9,CP(=O)(Nc1ccccn1)Oc1ccc(Cl)cc1 (stereo unspecified),inactive
10,CCC(C)N(CC(C)C)C(=S)SC(NC(C)=O)C(Cl)(Cl)Cl (stereo unspecified),inactive
11,O=[N+]([O-])c1cc([N+](=O)[O-])c(O)c([N+](=O)[O-])c1.c1ccc(Oc2ccncc2)cc1,inactive
12,CCOC(=O)c1ccc(NC(=O)C(C)(CCl)SC)cc1 (stereo unspecified),inactive
13,CCOC(=O)c1ccc(NP(C)(=O)Oc2ccc(OC)cc2)cc1 (stereo unspecified),inactive
14,O=C(OC1CN2CCC1CC2)c1cccc([N+](=O)[O-])c1 (stereo unspecified),inactive
15,CCOP(C)(=S)SCC(=O)NC(C)C(=O)O (stereo unspecified),inactive
16,Cc1cc(SC(NC(=O)c2ccccc2)C(Cl)(Cl)Cl)nc(C(C)C)n1 (stereo unspecified),inactive
17,CCCCOc1ccc(C(=O)NCC2(N3CCCCC3)CCCCC2)cc1OC,inactive
18,CCOC(=O)Nc1ccc([As](=O)(O)O)c(O)c1,inactive
19,O=[N+]([O-])c1ccc(Nc2ccc(Oc3ccc([N+](=O)[O-])cc3[N+](=O)[O-])cc2)c([N+](=O)[O-])c1,inactive
20,CP(=O)(Nc1ccccc1Br)Oc1ccccc1 (stereo unspecified),inactive
21,COc1ccccc1OP(C)(=O)Nc1ccccc1 (stereo unspecified),inactive
22,Cc1cc(SC(NC=O)C(Cl)(Cl)Cl)ncn1 (stereo unspecified),inactive
23,O=P(Nc1ccccn1)(c1cccc2ccccc12)c1cccc2ccccc12,inactive
24,CCOC(=O)Nc1cccc([As](=O)(O)O)c1,inactive

row,Structure (SMILES),outcome
1,CP(=S)(Nn1cnnc1)Oc1ccccc1 (stereo unspecified),inactive
2,O=C(/C=C/c1ccccc1)OC1CN2CCC1CC2 (stereo unspecified),inactive
3,CCOC(=O)C(CC)C1=NC(C)(C)Cc2ccccc21.O=[N+]([O-])c1cc([N+](=O)[O-])c(O)c([N+](=O)[O-])c1 (stereo unspecified),inactive
4,CN(C)C1(CNC(=O)c2ccc(S(C)(=O)=O)cc2)CCCCC1,inactive
5,O=[N+]([O-])c1cc([N+](=O)[O-])c(Nc2nnnn2CCO)c([N+](=O)[O-])c1,inactive
6,COc1cc(C2NCCC3(OCCO3)C2(C)C)cc(OC)c1OC.O=[N+]([O-])c1cc([N+](=O)[O-])c(O)c([N+](=O)[O-])c1 (stereo unspecified),inactive
7,Cc1ccc(C(=O)OC2CN3CCC2CC3)cc1 (stereo unspecified),inactive
8,CC1CCC(C(C)C)C(OP(=O)(Nc2ccccn2)c2ccccc2)C1 (stereo unspecified),inactive
9,Cc1nn(-c2ccccc2)c2c1P(=O)(N1CCOCC1)N(C)C(c1ccccc1)=N2 (stereo unspecified),inactive
10,Cc1ccc(OCC(=O)OC2CN3CCC2CC3)cc1 (stereo unspecified),inactive
11,O=[As](O)(c1cccs1)c1cccs1,inactive
12,O=P1(Nc2ccc(Br)cn2)COc2ccccc2OC1,inactive
13,CCCOc1ccc(NP(C)(=O)Oc2ccc(Cl)cc2)cc1 (stereo unspecified),inactive
14,CP(=O)(Nc1ccc(SC(F)(F)F)cc1)Oc1ccccc1 (stereo unspecified),inactive
15,Nc1cccc([As](=O)(O)c2ccccc2)c1,inactive
16,CN1CCCCC1COC(=O)C1(O)c2ccccc2CCc2ccccc21 (stereo unspecified),inactive
17,COc1ccccc1OP(C)(=O)Nc1c(C)cccc1C (stereo unspecified),inactive
18,O=P1(Nc2ncccn2)COc2ccccc2OC1,inactive
19,CC(C)(C)C(=O)NC(Sc1ncccn1)C(Cl)(Cl)Cl (stereo unspecified),inactive
20,Clc1n[nH]nc1-c1nn[nH][15n]1,inactive
21,CCOP(=O)(Nc1ccc(C)cn1)OCC,inactive
22,CN(CCCl)Cc1cc(Cl)c(NC2=NCCN2)c(Cl)c1,inactive
23,CCOP(=O)(NC(=NC(C)c1ccccc1)NC(C)c1ccccc1)OCC (stereo unspecified),inactive
24,CCC1=CC2Cc3nc4ccc(Cl)cc4c(N)c3C(C1)C2 (stereo unspecified),inactive

row,Structure (SMILES),outcome
1,O=P1(Nc2ccccn2)COc2ccccc2OC1,inactive
2,CC1(CBr)Cn2c(nc3ccccc3c2=O)S1 (stereo unspecified),inactive
3,O=[As](O)(c1ccccc1Br)c1ccccc1Br,inactive
4,CN(C(=O)Cc1ccc(Cl)c(Cl)c1)[C@@H]1CCCC[C@H]1N1CCCC1,inactive
5,CC(C)/C=N\N=C(\N)N[N+](=O)[O-],inactive
6,COc1ccccc1CNC(=O)COC(=O)C(O)(c1ccccc1)c1ccccc1,inactive
7,O=[N+]([O-])c1cc([N+](=O)[O-])c(-c2cnn(-c3ccccc3)c2)c([N+](=O)[O-])c1,inactive
8,CCOC(=O)c1ccc(NP(C)(=O)Oc2cc(C)cc(C)c2)cc1 (stereo unspecified),inactive
9,Cc1cc(C)cc(OP(C)(=O)Nc2ccc(C)cc2C)c1 (stereo unspecified),inactive
10,Cc1cccc(OCC(=O)OC2CN3CCC2CC3)c1 (stereo unspecified),inactive
11,O=[As](O)(c1cccc(O)c1)c1cccc(O)c1,inactive
12,COc1ccccc1OP(C)(=O)Nc1cccc(Br)c1 (stereo unspecified),inactive
13,O=[As](O)(O)c1cccnc1,inactive
14,COc1cc(C(=O)NCC2(N3CCOCC3)CCCCC2)cc(Cl)c1OC(C)C,inactive
15,O=C(OC1CN2CCC1CC2)c1ccc(Cl)cc1 (stereo unspecified),inactive
16,CCOP(=O)(Nc1cccc2ccccc12)OCC,inactive
17,Cc1ccc(C)c(NP(C)(=O)Oc2ccccc2)c1 (stereo unspecified),inactive
18,CCCOP(=S)(Nc1nc(N)cc(=O)[nH]1)OCCC,inactive
19,Cc1ccc(NCCc2c([N+](=O)[O-])cc([N+](=O)[O-])cc2[N+](=O)[O-])cc1,inactive
20,Nc1cccc2c([As](=O)(O)O)cccc12,inactive
21,Cc1cc(C)cc(OP(C)(=O)Nc2ccccn2)c1 (stereo unspecified),inactive
22,CP(=O)(Nc1cccc(Br)c1)Oc1ccccc1 (stereo unspecified),inactive
23,O=C(O)COc1ccc([As](=O)(O)O)cc1[N+](=O)[O-],inactive
24,Nc1ccccc1[As](=O)(O)c1ccccc1,inactive

row,Structure (SMILES),outcome
1,CS(=O)(=O)c1cc([N+](=O)[O-])c2no[n+]([O-])c2c1,inactive
2,O=P(Nc1nccs1)(Oc1ccccc1)Oc1ccccc1,inactive
3,O=P(Nc1nccs1)(c1ccccc1)c1nc2ccccc2s1 (stereo unspecified),inactive
4,O=C(O)c1cccc(Nc2c([N+](=O)[O-])cc([N+](=O)[O-])cc2[N+](=O)[O-])c1,inactive
5,CCOP1(=S)c2c(C)nn(CCC#N)c2N=C(c2ccccc2F)N1C (stereo unspecified),inactive
6,CC1=NCCc2c1[nH]c1ccccc21.O=[N+]([O-])c1cc([N+](=O)[O-])c(O)c([N+](=O)[O-])c1,inactive
7,CN(C(=O)Cc1ccc(Cl)c(Cl)c1)[C@H]1CC[C@@]2(CCCO2)C[C@@H]1N1CCCC1,inactive
8,O=[N+]([O-])c1ccc2c(c1)nnn2O,inactive
9,CN(C)C(=O)c1cc([N+](=O)[O-])cc2c1-c1c(cc([N+](=O)[O-])cc1[N+](=O)[O-])C2=O,inactive
10,CN(C(=O)Cc1ccccc1)[C@@H]1CC[C@]2(CCCO2)C[C@H]1N1CCCC1,inactive
11,N#CCCN(C(=O)COC(=O)C(O)(c1ccccc1)c1ccccc1)c1ccc(F)cc1,inactive
12,NC(=O)Nc1ccc([As](=O)(O)O)cc1,inactive
13,CCOC(=O)c1ccc(NP(C)(=O)Oc2ccc(F)cc2)cc1 (stereo unspecified),inactive
14,COc1ccc(OP(C)(=O)Nc2ccc(SC(F)(F)F)cc2)cc1 (stereo unspecified),inactive
15,O=C(NC1CCS(=O)(=O)C1)NP(=S)(Oc1ccccc1)Oc1ccccc1 (stereo unspecified),inactive
16,CCNC(=S)/N=C(\N)N[N+](=O)[O-],inactive
17,Cc1ccc(NP(=O)(Oc2cccc(C)c2)Oc2cccc(C)c2)nc1,inactive
18,CCOC(=O)NC(Sc1ccccc1)C(Cl)(Cl)Cl (stereo unspecified),inactive
19,c1ccc(-c2nn[nH]n2)c(-c2nn[nH]n2)c1,inactive
20,CP(=O)(Nc1ccccc1)Oc1ccc(F)cc1 (stereo unspecified),inactive
